Measured values from PMC9029089, “1,5-Disubstituted Acylated 2-Amino-4,5-dihydroimidazoles as a New Class of Retinoic Acid Receptor–Related Orphan Receptor (ROR) Inhibitors” (International Journal of Molecular Sciences, 2022).

The chains behind the UniProt entries cited, without tags or fusion partners. Residues count along the entry.
UniProt P45446, 216-470 limits assumed: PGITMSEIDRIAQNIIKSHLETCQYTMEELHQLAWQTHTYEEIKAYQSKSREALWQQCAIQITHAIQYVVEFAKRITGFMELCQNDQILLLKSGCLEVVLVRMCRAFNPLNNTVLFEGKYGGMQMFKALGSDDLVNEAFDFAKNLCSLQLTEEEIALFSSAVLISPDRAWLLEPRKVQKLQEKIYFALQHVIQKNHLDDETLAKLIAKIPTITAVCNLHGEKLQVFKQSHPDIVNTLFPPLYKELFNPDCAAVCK
UniProt P35398, 266-523 limits assumed: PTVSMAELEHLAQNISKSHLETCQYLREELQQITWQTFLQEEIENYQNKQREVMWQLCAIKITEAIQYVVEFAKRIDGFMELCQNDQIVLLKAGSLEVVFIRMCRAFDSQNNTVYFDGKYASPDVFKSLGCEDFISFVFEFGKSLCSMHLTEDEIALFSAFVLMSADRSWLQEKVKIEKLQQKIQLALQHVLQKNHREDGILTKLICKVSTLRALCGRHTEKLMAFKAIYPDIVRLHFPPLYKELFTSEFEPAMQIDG
UniProt P51450, 261-516 limits assumed: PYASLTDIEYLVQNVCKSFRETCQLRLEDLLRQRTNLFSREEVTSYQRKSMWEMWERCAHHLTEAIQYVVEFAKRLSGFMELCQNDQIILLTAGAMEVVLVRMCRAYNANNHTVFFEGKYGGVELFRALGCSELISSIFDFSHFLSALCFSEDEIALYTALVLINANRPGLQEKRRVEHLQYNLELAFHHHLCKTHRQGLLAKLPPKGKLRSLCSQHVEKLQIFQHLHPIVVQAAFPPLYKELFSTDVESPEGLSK

Assays:
RORβ = RORβ (Rattus norvegicus, UniProt P45446); assay: Gal4-RORβ-LBD UAS-luciferase reporter assay in TRex-CHO-K1 cells (doxycycline-stimulated); details: read-out: IC50 (μM, N=4) ROR-Beta; library 2520
RORα = RORα (Homo sapiens, UniProt P35398); assay: Gal4-RORα-LBD UAS-luciferase reporter assay in TRex-CHO-K1 cells (doxycycline-stimulated); details: read-out: IC50 (μM, N=4) ROR-Alpha; library 2520
RORγ = RORγ (Mus musculus, UniProt P51450); assay: Gal4-RORγ-LBD UAS-luciferase reporter assay in TRex-CHO-K1 cells (doxycycline-stimulated)

- IC50 (RORβ): 4.87 µM
- IC50 (RORα): 6.74 µM
- % Inhibition at 4 μM (N=3) (RORγ; library 2520, RORγ cells): 75.9%
- IC50 (RORγ; read-out: IC50 (μM, N=4) ROR-Gamma, library 2520): 5.07 µM
SMILES: CCC(C(=O)NC1=NC[C@H]([C@@H](C)CC)N1CCC(C)c1ccccc1)c1ccccc1 (stereo partly shown)
